Our source for the Ki values is ChEMBL document CHEMBL1125192, “Analogues of the 5-HT1A serotonin antagonist 1-(2-methoxyphenyl)-4-[4-(2-phthalimido)butyl]piperazine with reduced alpha 1-adrenergic affinity” (J Med Chem, 1991).

Protein sequences, listed by entry. Tags and fused reporters are not part of them.
UniProt P19327, whole entry: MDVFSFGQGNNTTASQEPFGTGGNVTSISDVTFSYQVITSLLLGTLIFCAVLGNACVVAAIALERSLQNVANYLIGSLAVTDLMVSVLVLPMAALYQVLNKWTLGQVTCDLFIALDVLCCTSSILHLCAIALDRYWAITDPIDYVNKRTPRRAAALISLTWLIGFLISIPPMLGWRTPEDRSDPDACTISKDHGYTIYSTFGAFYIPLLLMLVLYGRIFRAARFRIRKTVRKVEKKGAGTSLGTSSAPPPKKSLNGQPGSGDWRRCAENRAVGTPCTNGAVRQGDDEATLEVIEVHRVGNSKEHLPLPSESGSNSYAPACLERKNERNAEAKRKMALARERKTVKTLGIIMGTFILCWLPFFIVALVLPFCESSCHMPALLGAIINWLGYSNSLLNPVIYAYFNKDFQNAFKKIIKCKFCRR

For this experiment, the target named is 5-hydroxytryptamine receptor 1A (Rattus norvegicus, UniProt P19327). Briefly: Binding affinity towards 5-hydroxytryptamine 1A receptor of rat hippocampus using [3H]-8-hydroxy-2-(di-n-propylamine) tetralin (8-OH-DPAT) as a radioligand. The experiment is classed as tissue-based. Put shortly:
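Rat hippocampal homogenate (6 mg) incubated with 0.1 nM [3H]-8-OH-DPAT; nonspecific binding defined with 10 μM 8-OH-DPAT.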

In the case of `COc1ccccc1N1CCN(CCCCNC(=O)CCCc2ccccc2)CC1`, the inhibition constant Ki (usually the dissociation constant of the complex between target and ligand, obtained from inhibition or displacement) stood at 12 nM.
